Earlier results, collected in patent US7135196B2, “Iron compositions” (Vitra Pharmaceuticals Limited, priority 2000, dated 2006).

Settings: given on an empty stomach

In the case of ferrous sulphate, the absorption rate is given as 30%.
